Data published in patent US20010046996A1, “Use of a compound for preparing a drug” (priority 2000, published 2001).

Tested on: Lewis rats
Assay: EAE (experimental autoimmune encephalomyelitis) rat model for MS, clinical score
Type: in vivo
Settings: FIG. 1; B-220 daily 6 mg/animal; Interferon-beta daily 3×10^5 U/animal; versus negative control

B1: Interferon-beta: Interferon-beta (trademarks Avonex and Betaseron), drug used with the aim to cure or delay the MS disease (protein, UniProt P01574 22-187, looked up)
Interferon beta: MSYNLLGFLQRSSNFQCQKLLWQLNGRLEYCLKDRMNFDIPEEIKQLQQFQKEDAALTIYEMLQNIFAIFRQDSSSTGWNETIVENLLANVYHQINHLKTVLEEKLEKEDFTRGKLMSSLHLKRYYGRILHYLKAKEYSHCAWTIVRVEILRNFYFINRLTGYLRN
  reduction of the CNS symptoms (clinical score): no reducing effect
